The source of these data is DBAASP.

What all share (test): ≥ marks a high value that may be exact or a test limit, other limits are often not marked, values filed in µg/mL are converted to µM
In test [1] the test system is Xanthomonas campestris pv. Vesicatoria 2133-2.
In test [2] the test system is Erwinia amylovora PMV 6076.
In test [3] the test system is Pseudomonas syringae pv. syringae EPS 94.
Test [4] deals with Staphylococcus epidermidis ATCC 12228.
Test [5] concerns Pseudomonas aeruginosa ATCC 10145.
Test [6] has as its system Staphylococcus epidermidis ATCC 14990.
Test [7] relates to Staphylococcus aureus ATCC 6538.
Test [8] deals with Escherichia coli ATCC 11775.
Test [9] deals with Cryptococcus neoformans.
Test [10] deals with Salmonella typhimurium.
Test [11] deals with Staphylococcus aureus.
The subject of test [12] is Bacillus subtilis.
Test [13] has as its system Pseudomonas putida.
For test [14], the system named is Streptococcus mutans.
In test [15] the test system is Escherichia coli.
Test [16] deals with Streptococcus pneumoniae.
For test [17], the system named is Candida albicans.
Test [18] concerns Saccharomyces cerevisiae.
The test system of test [19] is Serratia marcescens.

Values after ≈ are worked out from the molar mass of the structure shown. A value given as a limit tells only on which side of the number the result lay.

Regarding `CC[C@H](C)[C@H](NC(=O)[C@H](CC(C)C)NC(=O)[C@H](C)NC(=O)[C@@H]1CCCN1C(=O)[C@H](CC(C)C)NC(=O)CNC(=O)[C@@H](NC(=O)[C@@H](NC(=O)[C@H](C)NC(=O)[C@@H]1CCCN1C(=O)CNC(=O)[C@H](C)NC(=O)[C@H](CC(C)C)NC(=O)[C@H](Cc1ccc(O)cc1)NC(=O)[C@H](CCCCN)NC(=O)[C@H](CC(C)C)NC(=O)[C@@H](NC(=O)[C@H](CCCCN)NC(=O)[C@H](CCCCN)NC(=O)[C@H](Cc1ccccc1)NC(=O)[C@H](CC(C)C)NC(=O)[C@H](CCCCN)NC(=O)[C@@H](N)CCCCN)[C@@H](C)CC)[C@@H](C)O)[C@@H](C)O)C(=O)N[C@@H](CO)C(=O)N[C@@H](Cc1c[nH]c2ccccc12)C(=O)O` [KKLFKKILKYLAGPATTGLPALISW], the MIC in test [1] is 3.54 µM (≈ 9.75 µg/mL); in test [2], 3.54 µM (≈ 9.75 µg/mL); in [3], 1.77 µM (≈ 4.88 µg/mL).
Regarding `CC(C)C[C@H](NC(=O)[C@H](CCCCN)NC(=O)[C@H](Cc1ccccc1)NC(=O)[C@H](CCC(=O)O)NC(=O)[C@H](CC(C)C)NC(=O)[C@H](CCCN=C(N)N)NC(=O)[C@@H](N)C(C)C)C(=O)N[C@@H](CCC(N)=O)C(=O)N[C@@H](CCC(N)=O)C(=O)N[C@H](C(=O)N[C@@H](CO)C(=O)N[C@@H](CS)C(=O)N[C@@H](CCCN=C(N)N)C(=O)N[C@@H](CCCCN)C(=O)N[C@@H](CCCN=C(N)N)C(=O)N[C@@H](CC(=O)O)C(=O)N[C@@H](Cc1c[nH]c2ccccc12)C(=O)N[C@@H](CCCCN)C(=O)N[C@@H](CCCCN)C(=O)N1CCC[C@H]1C(=O)O)[C@@H](C)O` [VRLEFKLQQTSCRKRDWKKP], the MIC in [4] was 4.91 µM (≈ 12.5 µg/mL); in [5], 2.47 µM (≈ 6.3 µg/mL); in [6], 4.91 µM (≈ 12.5 µg/mL); in test [7], 4.91 µM (≈ 12.5 µg/mL); in [8], 1.74 µM (≈ 4.42 µg/mL).
As to `CC(C)C[C@H](NC(=O)[C@H](CC(C)C)NC(=O)[C@H](CCCN=C(N)N)NC(=O)[C@H](Cc1cnc[nH]1)NC(=O)[C@@H](NC(=O)[C@H](CCCN=C(N)N)NC(=O)CNC(=O)[C@@H](NC(=O)[C@@H]1CCCN1C(=O)[C@H](Cc1ccccc1)NC(=O)[C@@H](N)CCC(N)=O)C(C)C)C(C)C)C(=O)N[C@@H](CCCN=C(N)N)C(=O)N[C@@H](CCCCN)C(=O)O` [QFPVGRVHRLLRK], the minimal inhibitory concentration (MIC) was not below 39.9 µM in [9]; 9.96 µM (≈ 16 µg/mL) in test [10]; 39.9 µM (≈ 64 µg/mL) in [11]; 9.96 µM (≈ 16 µg/mL) in [12]; 9.96 µM (≈ 16 µg/mL) in test [13]; 19.9 µM (≈ 32 µg/mL) in [14]. The MIC in [15] is 19.9 µM (≈ 32 µg/mL); in [16], 9.96 µM (≈ 16 µg/mL); in [17] it was 39.9 µM (≈ 64 µg/mL); in test [18], not below 39.9 µM; in [19] it was 19.9 µM (≈ 32 µg/mL).
